In this assay the target is human factor Xa (Homo sapiens, UniProt P00742). Put plainly: Factor Xa chromogenic assay (substrate S-2765).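 Note: purified enzyme, compound preincubated with the enzyme for 10 min before substrate addition starts the reaction.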 Format: biochemical. Conditions: read-out: Ki(FXa); inhibition constant for inhibition of factor Xa; IC50 corrected for substrate competition; 25° C., enzyme 0.5 nM, substrate 140 μM; tested form: TFA.

Sequences of proteins named here, by UniProt entry; tags and fusion partners are left off. Residues count along the entry.
UniProt P00742, 235-488 limits assumed: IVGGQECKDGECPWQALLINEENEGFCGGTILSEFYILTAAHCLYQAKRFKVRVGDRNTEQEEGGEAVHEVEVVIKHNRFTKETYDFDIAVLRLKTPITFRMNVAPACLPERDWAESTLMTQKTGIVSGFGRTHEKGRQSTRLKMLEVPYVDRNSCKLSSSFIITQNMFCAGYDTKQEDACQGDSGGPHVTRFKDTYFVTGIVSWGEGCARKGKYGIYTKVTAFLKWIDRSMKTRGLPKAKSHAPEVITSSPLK
UniProt P00742, 41-179 partner limits assumed: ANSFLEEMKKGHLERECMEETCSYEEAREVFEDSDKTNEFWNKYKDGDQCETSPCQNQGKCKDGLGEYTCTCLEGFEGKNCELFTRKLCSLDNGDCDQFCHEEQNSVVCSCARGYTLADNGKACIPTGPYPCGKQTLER

Ki data for one compound are collected here from US7067665B2, “Oxybenzamide derivatives useful for inhibiting factor Xa or Vlla” (Sanofi-Aventis Deutschland GmbH, priority 2000, dated 2006).

On to `COc1ccc(C(=O)NCC2CCN(c3ccncc3)CC2)cc1OCc1cccc(CN)c1`, for which the Ki is 38.8 µM.

Broadly, the Ki is a dissociation constant, usually derived from enzyme kinetics or from competition with a known ligand.
